Source: PMC4837355, “Receptor residence time trumps drug-likeness and oral bioavailability in determining efficacy of complement C5a antagonists” (Scientific Reports, 2016)

Conditions: rat, in vivo, po

- bioavailability: 2.4%
SMILES: CC(=O)N[C@@H](Cc1ccccc1)C(=O)N[C@H]1CCCNC(=O)[C@H](CCCNC(=N)N)NC(=O)[C@H](Cc2c[nH]c3ccccc23)NC(=O)[C@@H](CC2CCCCC2)NC(=O)[C@@H]2CCCN2C1=O [3D53, Ac-Phe-[Orn-Pro-D-Cha-Trp-Arg]]
